From patent US20230050653A1, “ROCK INHIBITOR AND PREPARATION METHOD THEREFOR AND USE THEREOF” (WUHAN LL SCIENCE AND TECHNOLOGY DEVELOPMENT CO., LTD., priority 2019, published 2023)

Amino acid sequences for entries named in this document (tags omitted).
UniProt Q13464, whole entry: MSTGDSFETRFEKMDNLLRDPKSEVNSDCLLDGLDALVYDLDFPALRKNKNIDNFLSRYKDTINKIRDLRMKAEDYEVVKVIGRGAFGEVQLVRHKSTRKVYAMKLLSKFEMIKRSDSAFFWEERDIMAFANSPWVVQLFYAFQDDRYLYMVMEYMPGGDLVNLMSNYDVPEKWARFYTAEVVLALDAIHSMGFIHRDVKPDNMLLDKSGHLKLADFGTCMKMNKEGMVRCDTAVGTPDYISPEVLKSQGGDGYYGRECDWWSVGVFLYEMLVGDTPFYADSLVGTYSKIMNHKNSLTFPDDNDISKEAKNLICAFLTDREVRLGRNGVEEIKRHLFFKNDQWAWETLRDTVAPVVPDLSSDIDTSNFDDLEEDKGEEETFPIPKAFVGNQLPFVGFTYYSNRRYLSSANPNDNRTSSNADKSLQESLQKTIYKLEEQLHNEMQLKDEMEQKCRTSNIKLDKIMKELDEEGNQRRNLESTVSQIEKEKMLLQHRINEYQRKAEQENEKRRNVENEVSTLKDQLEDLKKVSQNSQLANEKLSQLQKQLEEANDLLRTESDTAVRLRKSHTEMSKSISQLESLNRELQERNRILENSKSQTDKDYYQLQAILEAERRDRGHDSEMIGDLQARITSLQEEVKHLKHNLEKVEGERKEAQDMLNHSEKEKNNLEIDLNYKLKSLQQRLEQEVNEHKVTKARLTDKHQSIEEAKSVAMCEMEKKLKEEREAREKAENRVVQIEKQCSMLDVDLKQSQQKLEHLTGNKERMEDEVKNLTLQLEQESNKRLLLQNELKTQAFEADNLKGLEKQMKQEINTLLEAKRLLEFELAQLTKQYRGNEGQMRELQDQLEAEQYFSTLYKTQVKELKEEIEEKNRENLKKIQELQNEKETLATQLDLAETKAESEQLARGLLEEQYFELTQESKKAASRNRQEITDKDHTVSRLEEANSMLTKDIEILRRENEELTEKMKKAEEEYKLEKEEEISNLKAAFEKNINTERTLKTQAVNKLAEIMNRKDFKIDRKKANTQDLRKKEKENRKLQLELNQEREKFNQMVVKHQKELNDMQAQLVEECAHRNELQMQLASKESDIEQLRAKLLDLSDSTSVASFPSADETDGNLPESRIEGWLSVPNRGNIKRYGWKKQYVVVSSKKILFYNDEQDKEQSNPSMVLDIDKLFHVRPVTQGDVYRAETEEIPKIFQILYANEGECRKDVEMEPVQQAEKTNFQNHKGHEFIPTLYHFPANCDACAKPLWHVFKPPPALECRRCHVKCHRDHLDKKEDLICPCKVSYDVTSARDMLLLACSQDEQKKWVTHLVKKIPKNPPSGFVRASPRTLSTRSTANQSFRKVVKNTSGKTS
UniProt O75116, whole entry: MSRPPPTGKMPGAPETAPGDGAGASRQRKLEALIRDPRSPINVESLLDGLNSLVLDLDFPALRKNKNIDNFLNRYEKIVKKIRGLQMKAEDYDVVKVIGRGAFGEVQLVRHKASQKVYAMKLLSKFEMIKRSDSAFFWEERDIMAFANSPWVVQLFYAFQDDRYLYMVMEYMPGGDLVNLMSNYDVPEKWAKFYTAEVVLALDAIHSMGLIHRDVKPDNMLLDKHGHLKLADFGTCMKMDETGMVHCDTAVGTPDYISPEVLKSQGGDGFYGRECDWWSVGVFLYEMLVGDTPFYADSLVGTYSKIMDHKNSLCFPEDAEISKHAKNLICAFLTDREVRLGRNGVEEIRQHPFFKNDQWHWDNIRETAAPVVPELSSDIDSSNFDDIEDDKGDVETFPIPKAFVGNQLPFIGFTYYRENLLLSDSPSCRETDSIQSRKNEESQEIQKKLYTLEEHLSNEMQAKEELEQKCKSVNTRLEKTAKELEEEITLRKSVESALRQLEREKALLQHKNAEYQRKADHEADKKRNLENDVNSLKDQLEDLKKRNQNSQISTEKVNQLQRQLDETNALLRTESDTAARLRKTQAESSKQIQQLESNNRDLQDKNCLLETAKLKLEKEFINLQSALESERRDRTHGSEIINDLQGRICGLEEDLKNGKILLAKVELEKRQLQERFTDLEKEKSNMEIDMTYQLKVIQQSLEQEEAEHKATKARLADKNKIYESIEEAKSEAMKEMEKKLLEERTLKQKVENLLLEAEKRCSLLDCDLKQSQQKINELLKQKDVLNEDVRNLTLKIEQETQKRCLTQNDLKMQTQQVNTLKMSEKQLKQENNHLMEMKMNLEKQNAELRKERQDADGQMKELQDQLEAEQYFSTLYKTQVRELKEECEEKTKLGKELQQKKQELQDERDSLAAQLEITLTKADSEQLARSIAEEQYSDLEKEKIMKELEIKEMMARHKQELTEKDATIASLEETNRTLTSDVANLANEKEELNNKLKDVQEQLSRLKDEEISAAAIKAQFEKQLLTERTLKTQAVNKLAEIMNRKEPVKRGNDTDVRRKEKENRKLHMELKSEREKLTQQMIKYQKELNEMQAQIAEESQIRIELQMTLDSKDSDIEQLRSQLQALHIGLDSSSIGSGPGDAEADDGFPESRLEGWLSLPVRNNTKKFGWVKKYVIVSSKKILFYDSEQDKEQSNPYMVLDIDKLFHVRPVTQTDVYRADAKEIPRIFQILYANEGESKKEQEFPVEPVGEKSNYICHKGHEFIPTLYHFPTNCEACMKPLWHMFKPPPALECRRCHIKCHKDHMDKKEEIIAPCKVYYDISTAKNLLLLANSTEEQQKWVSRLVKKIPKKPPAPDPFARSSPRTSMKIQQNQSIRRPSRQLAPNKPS

Columns and labels:
ROCK1 kinase = ROCK1 kinase (Homo sapiens, UniProt Q13464); test: In vitro evaluation of ROCK1 kinase selectivity (HTRF KinEASE-STK time-resolved fluorometric assay); assay type: biochemical; details: read-out: IC50 for ROCK1
Protocol: ROCK1 activity was detected using a 96-well (Cisbio) time-resolved fluorometric assay. The assay for ROCK1 was performed in the following assay buffer: 5 mM MgCl2 (Sigma), 1 mM DTT (Sigma) and 1× kinase buffer. The kinase buffer was used for dilution. 7.5 μL of ROCK1 kinase (Invitrogen) was added to a 96-well microplate to reach a final concentration of 0.4 ng/μL, and then 0.25 μL of test compound (DMSO content: 1%) was added. The mixture was incubated at room temperature for 0.5 h. To start the reaction, the kinase buffer was also used to mix ATP (Aladdin) and the substrate STK-substrate 2-biotin. 7.5 μL of the mixed solution was added to the microplate to reach final concentrations of 3.53 μM and 1 μM. The resulting mixture was incubated for 2 h at room temperature. […] was mixed with STK antibody-Cryptate, and then an appropriate volume of the mixture was mixed with an equal volume of streptavidin-XL665. 10 μL of the resulting mixture was added to stop the reaction. After further incubation for about 1 h, the microplate was read on a Molecular Devices SpectraMax i3x multifunctional microplate reader. The kinase buffer, the STK-substrate 2-biotin, the detection buffer, the STK antibody-Cryptate, and the streptavidin-XL665 were all from HTRF KinEASE-STK kit (Cisbio, 1000 tests, 61[…]). […]

ROCK2 kinase = ROCK2 kinase (Homo sapiens, UniProt O75116); test: In vitro evaluation of ROCK2 kinase activity (HTRF KinEASE-STK time-resolved fluorometric assay); assay type: biochemical; details: read-out: IC50 for ROCK2
Protocol: ROCK2 activity screening. ROCK2 activity was detected using a 96-well (Cisbio) time-resolved fluorometric assay. The assay for ROCK2 was performed in the following assay buffer: 5 mM MgCl2 (Sigma), 1 mM DTT (Sigma) and 1× kinase buffer. The kinase buffer was used for dilution. 7.5 μL of ROCK2 kinase (Invitrogen, PV3759) was added to a 96-well microplate to reach a final concentration of 0.4 ng/μL, and then 0.25 μL of test compound (DMSO content: 1% (volume fraction)) was added. The mixture was incubated at room temperature for 0.5 h. To start the reaction, the kinase buffer was used to mix ATP (Aladdin) and the substrate STK-substrate 2-biotin. 7.5 μL of the mixed solution was added to the microplate to reach final concentrations of 6.739 μM and 1 μM. The resulting mixture was incubated for 2 h at room temperature. 5 mL of detection buffer was mixed with STK antibody-Cryptate, and then an appropriate volume of the mixture was mixed with an equal volume of streptavidin-XL665. 10 μL of the resulting mixture was added to the microplate to stop the reaction. After further incubation for about 1 h, the microplate was read on a Molecular Devices SpectraMax i3x multifunctional microplate reader. The kinase buffer, the STK-substrate 2-biotin, the detection buffer, the STK antibody-Cryptate, and the streptavidin-XL665 were all from HTRF KinEASE-STK kit (Cisbio, 1000 tests, 61[…]). […]

COc1cc(F)cc(CNC(=O)c2noc3cc(-c4cn[nH]c4)ccc23)c1 was tested, and the IC50 (ROCK1 kinase) was < 0.05 µM and the IC50 (ROCK2 kinase) was < 0.05 µM.
